In ChEMBL document CHEMBL1649315, “Extended-spectrum cephalosporinase in Acinetobacter baumannii” (Antimicrob Agents Chemother, 2010) one finds Km, kcat and kcat/Km data, which are given here for two substances.

Data set [1] has as its system CCN1CCN(C(=O)N[C@@H](C(=O)N[C@@H]2C(=O)N3[C@@H]2SC(C)(C)[C@@H]3C(=O)O)c2ccccc2)C(=O)C1=O. Description: (§1) Activity of Acinetobacter baumannii ADC-11 beta-lactamase.
The subject of data set [2] is O=C(Cc1cccs1)N[C@@H]1C(=O)N2C(C(=O)[O-])=C(C[n+]3ccccc3)CS[C@H]12. The description is as §1.
Data set [3] has as its system CO[C@@]1(NC(=O)Cc2cccs2)C(=O)N2C(C(=O)O)=C(COC(N)=O)CS[C@@H]21. The description is as §1.
The test system of data set [4] is CO/N=C(\C(=O)N[C@@H]1C(=O)N2C(C(=O)[O-])=C(C[N+]3(C)CCCC3)CS[C@H]12)c1csc(N)n1. The data set is described as §1.
The test system of data set [5] is C[C@@H](O)[C@H]1C(=O)N2C(C(=O)O)=C(SCCNC=N)C[C@H]12. The description is as §1.
For data set [6], the system named is O=C(Cc1cccs1)N[C@@H]1C(=O)N2C(C(=O)[O-])=C(C[n+]3ccccc3)CS[C@H]12. Nature of the data set: (§2) Ratio of Kcat to Km for Acinetobacter baumannii ADC-11 beta-lactamase.
The subject of data set [7] is CC(=O)OCC1=C(C(=O)O)N2C(=O)[C@@H](NC(=O)Cc3cccs3)[C@H]2SC1. The description is as §2.
Data set [8] deals with CO/N=C(\C(=O)N[C@@H]1C(=O)N2C(C(=O)[O-])=C(C[N+]3(C)CCCC3)CS[C@H]12)c1csc(N)n1. The description is as §2.
The test system of data set [9] is C[C@@H](O)[C@H]1C(=O)N2C(C(=O)O)=C(SCCNC=N)C[C@H]12. Described as §2.
The test system of data set [10] is CO/N=C(\C(=O)N[C@@H]1C(=O)N2C(C(=O)O)=C(COC(C)=O)CS[C@H]12)c1csc(N)n1. Description: (§3) Ratio of Kcat to Ki for Acinetobacter baumannii ADC-11 beta-lactamase.
The subject of data set [11] is C[C@H]1[C@H](NC(=O)/C(=N\OC(C)(C)C(=O)O)c2csc(N)n2)C(=O)N1S(=O)(=O)O. The data set is described as §3.
For data set [12], the system named is CO/N=C(\C(=O)N[C@@H]1C(=O)N2C(C(=O)O)=C(COC(C)=O)CS[C@H]12)c1csc(N)n1. Description: (§4) Activity of Acinetobacter baumannii ADC-33 beta-lactamase.
Data set [13] relates to CO/N=C(\C(=O)N[C@@H]1C(=O)N2C(C(=O)[O-])=C(C[N+]3(C)CCCC3)CS[C@H]12)c1csc(N)n1. The description is as §4.
Data set [14] relates to C[C@@H](O)[C@H]1C(=O)N2C(C(=O)O)=C(SCCNC=N)C[C@H]12. Described as §4.
In data set [15] the test system is C[C@H]1[C@H](NC(=O)/C(=N\OC(C)(C)C(=O)O)c2csc(N)n2)C(=O)N1S(=O)(=O)O. The description is as §4.
The test system of data set [16] is CC1(C)S[C@@H]2[C@H](NC(=O)Cc3ccccc3)C(=O)N2[C@H]1C(=O)O. The description is as §4.
For data set [17], the system named is CO/N=C(\C(=O)N[C@@H]1C(=O)N2C(C(=O)[O-])=C(C[N+]3(C)CCCC3)CS[C@H]12)c1csc(N)n1. Description: (§5) Ratio of Kcat to Km for Acinetobacter baumannii ADC-33 beta-lactamase.
In data set [18] the test system is C[C@@H](O)[C@H]1C(=O)N2C(C(=O)O)=C(SCCNC=N)C[C@H]12. Described as §5.
Data set [19] has as its system CC(C)(O/N=C(\C(=O)N[C@@H]1C(=O)N2C(C(=O)[O-])=C(C[n+]3ccccc3)CS[C@H]12)c1csc(N)n1)C(=O)O. The data set is described as §5.

The Km is the substrate concentration at which the rate is half of its maximum. By kcat is commonly meant the maximal rate divided by the concentration of active sites. By kcat/Km is commonly meant the second-order rate constant that governs catalysis at low substrate concentration. Regarding “ADC-11 (Acinetobacter baumannii) (from UniProt D6NSM8)”, the Km in data set [1] stood at 25 µM; in data set [2], 250 µM; in data set [4] it was 1800 µM; in [5] it was 6 µM. Besides, the kcat is 1.5 s⁻¹ in data set [3], 1 s⁻¹ in [4] and 0.015 s⁻¹ in data set [5]. Further, the kcat/Km in data set [6] amounted to 2.5e+06 M⁻¹ s⁻¹; in data set [7], 2.5e+06 M⁻¹ s⁻¹; in [8] it was 500 M⁻¹ s⁻¹; in [9] it was 2500 M⁻¹ s⁻¹; in data set [10], 100000 M⁻¹ s⁻¹; in data set [11], 2e+06 M⁻¹ s⁻¹.
As for “Beta-lactamase ADC-33 (Acinetobacter baumannii) (from UniProt B2ZTR6)”, the catalytic constant (kcat) in [12] came to 1 s⁻¹; in data set [13], 10 s⁻¹; in [14], 0.01 s⁻¹; in [15], 0.015 s⁻¹; in data set [16] it was 15 s⁻¹. The Km worked out at 1300 µM in data set [13] and 5 µM in data set [14]. Moreover, the figures for the specificity constant (kcat/Km) in [17], in data set [18] and in data set [19] were 10000 M⁻¹ s⁻¹, 2000 M⁻¹ s⁻¹ and 150000 M⁻¹ s⁻¹, respectively.
